Molecular target: T1, farnesyl-protein transferase (Bos taurus, UniProt P29702+P49355)
T1 construct: partially pure bovine brain farnesyl-protein transferase; from tissue; host or cells: bovine brain (cerebral lobes)
Experiment: Inhibition of Ras farnesylation in vitro
Assay type: biochemical, bovine
Details: Ras-CVLS at 3.5 µM, 0.25 µM [³H]FPP, partially purified enzyme; average of 2-5 determinations; read-out: IC₅₀
Description: Polyisoprenylation of Ras- [³H]Farnesyl diphosphate (FPP) (20 Ci/mmol) was purchased from New England Nuclear. Farnesyl-protein transferase activity assays were carried out at 30°C unless noted otherwise. A typical reaction contained (in a final volume of 50 µl):[³H]farnesyl diphosphate, Ras protein (3.5µM), 50 mM HEPES, pH 7.5, 5 mM MgCl₂ 5 mM dithiothreitol and farnesyl-protein transferase. After thermally pre-equilibrating the assay mixture in the absence of enzyme, reactions were initiated by the addition of farnesyl-protein transferase and stopped at timed intervals by the addition of 1M HCl in ethanol (1 mL). The quenched reactions were allowed to stand for 15 minutes (to complete the precipitation process). After adding 2 mL of 100% ethanol, the reactions were vacuum-filtered through Whatmann GF/C filters. Filters were washed four time with 2 mL aliquots of 100% ethanol, mixed with scintillation fluid (10 mL) and then counted in a Beckmann LS3801 scintillation couter.
For inhibition studies, assays were run as described above, except putative inhibitors were added at the concentration indicated, IC₅₀ values were determined with both farnesyl-protein transferase substrates at their KM concentrations. The KM for Ras protein substrate having the CAAX sequence, CVLS, is 3.5 µM and the KM for FPP is 0.25µM.
Ras proteins used as substrates were expressed in E. coli and purified. […]

IC50: 2000 nM
Structure (SMILES): CC(C)C[C@H](NC(=O)[C@@H](NC(=O)[C@@H](N)CS)C(C)C)C(=O)N[C@@H](CO)C(=O)O [CVLS, Cys-Val-Leu-Ser, reference compound]
